Laboratory results published in patent publication US20250368667A1, “USP1 INHIBITOR” (Shanghai Qilu Pharmaceutical Research and Development …, priority 2022, published 2025).

Amino acid sequences for entries named in this document (tags omitted).
UniProt O94782, whole entry: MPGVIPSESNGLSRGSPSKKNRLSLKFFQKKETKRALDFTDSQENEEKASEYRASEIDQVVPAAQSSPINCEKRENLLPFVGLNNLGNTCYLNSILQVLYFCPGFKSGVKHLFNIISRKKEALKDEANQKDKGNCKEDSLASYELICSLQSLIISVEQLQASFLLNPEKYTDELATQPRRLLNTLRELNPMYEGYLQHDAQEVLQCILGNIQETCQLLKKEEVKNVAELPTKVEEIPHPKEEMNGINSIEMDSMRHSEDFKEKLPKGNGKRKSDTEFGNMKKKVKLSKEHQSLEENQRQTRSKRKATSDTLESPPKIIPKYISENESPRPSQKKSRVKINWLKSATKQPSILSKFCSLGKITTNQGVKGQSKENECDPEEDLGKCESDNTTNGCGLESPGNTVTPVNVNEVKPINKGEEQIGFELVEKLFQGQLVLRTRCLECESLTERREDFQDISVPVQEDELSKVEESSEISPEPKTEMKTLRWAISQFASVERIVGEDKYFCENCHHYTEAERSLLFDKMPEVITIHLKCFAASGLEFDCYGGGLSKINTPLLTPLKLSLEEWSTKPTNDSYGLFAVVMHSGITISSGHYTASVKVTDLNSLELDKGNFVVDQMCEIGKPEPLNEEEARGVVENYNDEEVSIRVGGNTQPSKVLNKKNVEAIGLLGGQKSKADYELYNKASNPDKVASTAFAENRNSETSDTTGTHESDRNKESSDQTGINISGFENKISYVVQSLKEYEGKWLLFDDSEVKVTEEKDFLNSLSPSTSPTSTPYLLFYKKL
UniProt Q8TAF3, whole entry partner: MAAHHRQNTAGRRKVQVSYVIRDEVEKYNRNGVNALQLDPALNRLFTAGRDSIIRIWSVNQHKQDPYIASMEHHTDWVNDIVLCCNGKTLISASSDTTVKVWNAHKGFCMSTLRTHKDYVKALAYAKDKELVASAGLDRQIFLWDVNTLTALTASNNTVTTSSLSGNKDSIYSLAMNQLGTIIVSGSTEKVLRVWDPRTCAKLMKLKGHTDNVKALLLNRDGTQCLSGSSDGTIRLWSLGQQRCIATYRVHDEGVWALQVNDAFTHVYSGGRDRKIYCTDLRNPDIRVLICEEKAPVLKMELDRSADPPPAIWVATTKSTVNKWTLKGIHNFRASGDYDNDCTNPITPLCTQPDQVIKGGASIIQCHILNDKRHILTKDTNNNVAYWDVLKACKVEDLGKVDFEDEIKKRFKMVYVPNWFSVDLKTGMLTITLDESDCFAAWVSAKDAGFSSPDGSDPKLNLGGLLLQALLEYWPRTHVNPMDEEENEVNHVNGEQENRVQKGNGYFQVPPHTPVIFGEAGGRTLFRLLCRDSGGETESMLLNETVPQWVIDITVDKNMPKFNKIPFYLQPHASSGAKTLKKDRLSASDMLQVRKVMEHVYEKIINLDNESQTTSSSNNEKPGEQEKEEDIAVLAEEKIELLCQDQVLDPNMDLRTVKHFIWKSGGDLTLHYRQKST

These compounds were tested against recombinant human His6-USP1/His6-UAF1 composite protein (Homo sapiens (Human), UniProt O94782) (assay: USP1 enzyme activity detection (Ub-Rho fluorescence)). Details: read-out: IC50 (enzymatic inhibition of USP1); USP1/UAF1, Ub-Rho substrate 300 nM, 1 hour pre-incubation.
Type: biochemical

SMILES | IC50 [µM]
COc1nccc(C2CC2)c1-c1ncc2c3ccncc3n(Cc3ccc(-c4nc(C(F)(F)F)cn4C(C)C)cc3)c2n1 | 0.138
COc1ncnc(C2CC2)c1-c1ncc2c3ccc(OCCN)nc3n(Cc3ccc4c(c3)CCCn3cc(C(F)(F)F)nc3-4)c2n1 | 0.00126
COc1ncnc(C2CC2)c1-c1ncc2c3ccc(C(F)(F)F)cc3n(Cc3ccc(-n4nc(C(F)(F)F)cc4C)cc3)c2n1 | 0.245
